# Antibody variant affinities, Ab-14 light chain, assay B

The measurements come from Li et al. 2023 (doi:10.1038/s41467-023-39022-2) through the FLAb antibody collection.

Target peptide (SARS-CoV-2 spike, HR2 region): PDVDLGDISGINAS

The variants keep the heavy chain, the linker and the frameworks of Ab-14 (scFv order VH, the linker GGGGSGGGGSGGGGS, VL).
VH: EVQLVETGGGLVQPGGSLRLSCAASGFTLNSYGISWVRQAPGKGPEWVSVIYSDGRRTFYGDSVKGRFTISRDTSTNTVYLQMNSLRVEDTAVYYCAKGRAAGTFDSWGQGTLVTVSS
VL: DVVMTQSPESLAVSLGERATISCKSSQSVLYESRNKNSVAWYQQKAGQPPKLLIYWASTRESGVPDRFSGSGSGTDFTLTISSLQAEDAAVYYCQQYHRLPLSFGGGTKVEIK

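The parent was found by panning a naive human phage display library on the peptide. The variants were designed computationally from a first round of random CDR variants and then made and measured. Several design methods are mixed in this list. AlphaSeq pools MATa yeast showing the antibodies with MATalpha yeast showing the peptide. Mating (16 h, 30 °C) was followed by selection of diploids and sequencing of their barcodes. Each replicate has its own calibration line, from reference interactions of the BCL2 family. There are six technical replicates.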

Variants are written as CDR1, CDR2 and CDR3 of the light chain (limits as in the source). Parent: KSSQSVLYESRNKNSVA, WASTRES, QQYHRLPLS. Values are log10 of the apparent Kd in nM; lower means stronger binding. The mean shown is taken over the replicates in which the pair was detected. Where no diploid with the target was found in that replicate, the entry reads "nd": below detection, most likely a poor binder, though not proof of it. As a blank, each scFv also met three strains without target: over all light chain designs, 4% of these pairings were detected, typically at 2.64 and seldom below 1.59. The authors' rule: three or more of the six replicates give a measured affinity, fewer mean a poor binder. A sequence measured in both rounds can read differently, since the two assays cover different ranges.

| CDR-L1 | CDR-L2 | CDR-L3 | log10 Kd (nM) by replicate | mean log10 Kd (nM) |
|---|---|---|---|---|
| MIAMEIGIEDSKWQAVA | SNSVRAS | QQYGRLPFS | 2.18 1.40 2.10 1.85 1.64 2.41 | 1.93 |
| KVSYFGEQLTKTGSNVA | DNETRED | QQYFRLPLS | 0.01 -0.10 -0.12 -0.16 0.11 0.36 | 0.02 |
| ALQQLELYESRNWNSVA | NASTRED | QQYHRLPLS | 0.07 -0.15 -0.03 -0.28 -0.22 0.02 | -0.10 |
| DVTVVDNGASKIQNSVA | HGVEKCD | QQYSRLPLA | 0.48 0.25 0.24 -0.26 0.23 0.53 | 0.24 |
| KSSQSVLYESRNENSVA | WASTRES | QQYVRLPLS | nd nd nd nd nd nd | nd |
| KFHMGHEAGQRKHDNVA | EANLRPS | QQYFRLPII | 1.94 1.70 1.39 1.62 1.21 2.00 | 1.64 |
| MISQSFLIGMKAKNSVA | QTNTRFE | QQYDRLPLI | 2.29 1.44 1.86 1.38 1.31 nd | 1.65 |
| KISFQYRYEQLNKNSIA | EVQTRLK | QQYHRLPLS | 0.81 0.89 1.06 0.86 1.23 1.06 | 0.98 |
| KFSAMLYHDNSEASHVA | EGLEVRE | QQYNRLPLG | 1.74 1.51 2.01 2.73 1.56 1.89 | 1.91 |
| KISQMVRVGSTVSNSIA | EMVTRAK | QQYHRLPLA | 1.17 0.60 0.81 1.08 1.01 0.96 | 0.94 |
| KMEIGVLYESRNKNSVA | GASVRES | QQYHRLPLS | 0.83 0.55 0.44 0.41 0.48 0.65 | 0.56 |
| SLMQVGGYLSNNKNSIA | DLRTRES | QQYHRLPLS | 0.59 0.59 0.53 0.28 0.47 0.33 | 0.47 |
| SLAYTQHFGQTQEKAIA | EVATRCQ | QQYFRLPLG | 1.10 0.70 0.76 0.78 0.72 0.89 | 0.83 |
| KYYPSYLYESRNKNSVA | DASTRES | QQYHRLPLS | 0.29 0.34 -0.05 0.16 0.11 0.16 | 0.17 |
| MISQSFLIGMKAKNSVA | QTSTRES | QQYDRLPLA | 0.80 1.09 0.47 0.43 0.53 0.49 | 0.64 |

Further variants, results first:

| log10 Kd (nM) by replicate | mean log10 Kd (nM) | CDR-L1 | CDR-L2 | CDR-L3 |
|---|---|---|---|---|
| 0.46 0.31 0.20 0.33 0.41 0.49 | 0.37 | QIYQAMHTLMQQKNNVA | DVTNRNR | QQYNRLPLS |
| 0.11 -0.18 -0.06 -0.40 -0.06 -0.08 | -0.11 | KISQSELYESRNKNSVA | NASTRES | QQYHRLPLS |
| 0.64 0.86 0.92 1.59 0.82 0.54 | 0.90 | TLYGLTNSMSKNKDNVA | EMSTREA | QQYDRLPLA |
| 0.47 -0.16 0.07 -0.05 0.45 0.66 | 0.24 | SITQLVAYGSRNKNSVA | QMSTREN | QQYDRLPLS |
| 1.37 1.09 1.47 1.16 nd 1.44 | 1.31 | MISQVMNTLTRYGNNVA | DLQERED | QQYFRLPLS |
| nd 3.37 2.18 nd 2.18 3.03 | 2.69 | MLHEVMGLVSHKQSSIA | DNSTRED | QQYDRLPLS |
| -0.31 -0.09 -0.59 -0.18 -0.37 -0.04 | -0.26 | KLHQSVLYESRNKNSVA | GASTRES | QQYHRLPLS |
| 1.91 1.59 1.25 1.74 1.59 1.67 | 1.63 | KLGQSTHIESFNKNNVA | EMTTRES | QSYDRLPLS |
| -0.14 -0.28 -0.21 -0.44 -0.24 -0.17 | -0.25 | KLSQSVLYESRNKNSVA | GASQRES | QQYHRLPLS |
| 1.41 1.52 1.35 2.00 1.73 1.08 | 1.51 | KFSQSMLYESRVKNNVA | NASQRES | QMYHRLPLS |
| 0.77 0.42 0.52 0.63 0.36 0.85 | 0.59 | NIVGRAQMQDSGRQAIA | NAHARCT | QQYFHLPLT |
| nd nd nd nd nd nd | nd | KSSQSVLYMSENKNSVA | WASTRES | QQYHRLTLS |
| -0.14 -0.13 -0.27 -0.39 -0.15 -0.21 | -0.21 | HLEQSELYESRMKNSVA | NASTRLS | QQYHRLPLS |
| 0.05 -0.20 -0.16 -0.38 -0.26 -0.05 | -0.17 | KLPQSTLYESRNKNSVA | QASTRES | QQYHRLPLT |
| 1.38 1.43 1.77 0.98 1.89 1.53 | 1.50 | MISQLYNMGQFAINSVA | QASQRCE | QQYDRLPLI |

Excerpt, the first 5 entries:

CDR-L1,CDR-L2,CDR-L3,log10 Kd (nM) by replicate,mean log10 Kd (nM)
MIAMEIGIEDSKWQAVA,SNSVRAS,QQYGRLPFS,2.18 1.40 2.10 1.85 1.64 2.41,1.93
KVSYFGEQLTKTGSNVA,DNETRED,QQYFRLPLS,0.01 -0.10 -0.12 -0.16 0.11 0.36,0.02
ALQQLELYESRNWNSVA,NASTRED,QQYHRLPLS,0.07 -0.15 -0.03 -0.28 -0.22 0.02,-0.10
DVTVVDNGASKIQNSVA,HGVEKCD,QQYSRLPLA,0.48 0.25 0.24 -0.26 0.23 0.53,0.24
KSSQSVLYESRNENSVA,WASTRES,QQYVRLPLS,nd nd nd nd nd nd,nd